Measurements from US12662491B2 (Redona Therapeutics, Inc., priority 2020, dated 2026).

The chains behind the UniProt entries cited, without tags or fusion partners. Residues count along the entry.
UniProt Q5TAX3, 212-1420 limits assumed: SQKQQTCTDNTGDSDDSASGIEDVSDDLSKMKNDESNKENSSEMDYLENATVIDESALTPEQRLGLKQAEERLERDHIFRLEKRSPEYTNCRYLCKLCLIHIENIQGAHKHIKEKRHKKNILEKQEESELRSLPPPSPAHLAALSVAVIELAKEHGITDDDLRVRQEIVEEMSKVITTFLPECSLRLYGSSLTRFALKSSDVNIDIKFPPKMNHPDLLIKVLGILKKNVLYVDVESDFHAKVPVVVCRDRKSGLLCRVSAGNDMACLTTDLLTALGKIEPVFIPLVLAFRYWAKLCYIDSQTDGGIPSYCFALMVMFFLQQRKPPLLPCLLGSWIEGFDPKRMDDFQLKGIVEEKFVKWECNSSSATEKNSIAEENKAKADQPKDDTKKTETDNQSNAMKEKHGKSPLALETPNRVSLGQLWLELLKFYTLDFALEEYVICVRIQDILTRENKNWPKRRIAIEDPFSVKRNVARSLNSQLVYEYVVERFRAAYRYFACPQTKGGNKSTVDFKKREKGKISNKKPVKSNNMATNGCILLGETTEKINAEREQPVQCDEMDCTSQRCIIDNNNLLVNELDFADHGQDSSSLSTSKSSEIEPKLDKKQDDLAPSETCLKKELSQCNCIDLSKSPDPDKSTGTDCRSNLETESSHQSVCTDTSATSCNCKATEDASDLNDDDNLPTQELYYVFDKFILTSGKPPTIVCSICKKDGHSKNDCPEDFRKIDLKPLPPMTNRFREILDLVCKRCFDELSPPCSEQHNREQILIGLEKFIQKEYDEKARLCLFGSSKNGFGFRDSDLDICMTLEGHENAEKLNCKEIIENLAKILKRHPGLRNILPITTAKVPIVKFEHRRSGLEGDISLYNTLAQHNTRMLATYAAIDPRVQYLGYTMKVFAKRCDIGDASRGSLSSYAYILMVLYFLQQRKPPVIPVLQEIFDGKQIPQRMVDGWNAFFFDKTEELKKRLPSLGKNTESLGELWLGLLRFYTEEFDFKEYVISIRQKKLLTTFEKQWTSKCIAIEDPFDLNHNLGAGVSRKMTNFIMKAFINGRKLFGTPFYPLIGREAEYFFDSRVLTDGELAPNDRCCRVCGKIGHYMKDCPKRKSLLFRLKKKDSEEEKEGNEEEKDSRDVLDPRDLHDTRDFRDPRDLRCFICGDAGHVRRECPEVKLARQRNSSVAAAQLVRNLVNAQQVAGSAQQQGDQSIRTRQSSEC

Target: Zcchc11 enzyme (Homo sapiens, UniProt Q5TAX3)
Test: TUTase assay (Zcchc11 assay, Lin28a-dependent polyuridylation of pre-let-7)
Conditions: read-out: Potency Lin28a-dep Z11 IC50; Lin28a-dependent Zcchc11 (Z11) TUTase activity
Description: The purpose of the Zcchc11 assay is to determine compound potency against Zcchc11 enzyme through the measurement of IC50. Compound inhibition is measured as a function of polyuridine tails added to RNA substrates in the presence of active TUTase, UTP, and inhibitor. The Zcchc11 assay was done in a black, non-binding, 384 well plate (Corning #3575). All steps were performed at room temperature. For a typical assay, a 29 ul aliquot of assay buffer (50 mM HEPES pH 7.3, 150 mM KCl, 5 mM MgCl2, 10 mM DTT, 0.01% Triton X-100, 40 U/ml RNAsin (Promega)) containing LIN28A protein (final concentration: 10 nM) is added to each well. Next, 1 ul of compound in 100% DMSO is transferred from a compound dilution plate in which the compound is serially diluted. Next, 10 ul of a 5× mix of Zcchc11 and RNA substrate (5′-fluorescein labeled pre-let-7 miRNA (Dharmacon)) is added (final concentrations: 0.2 nM and 2 nM, respectively). The plate is placed on a plate shaker for 30 seconds to produce mixing, then incubated for 30 minutes. Next, 10 ul of a 5× mix of UTP and the quenching probe (3′-rhodamine labeled A20, polyadenosine nucleotide, (IDT)) is added (final concentrations: 5 uM and 4 nM, respectively). The plate is immediately placed in a Biotek Cytation 5 plate reader, and the time-dependent decrease in fluorescein fluorescence resulting from annealing of the A20 probe to polyuridine tails is recorded, using the kinetics mode of the reader. Reaction rates are obtained using linear fits to the early portion of progress curves. IC50 values are calculated using a four parameter fit with 100% enzyme activity determined from the DMSO control and 0% activity from control samples lacking UTP.
The LIN28A protein was expressed in and purified from E. coli, strain Rosetta II (Novagen). The entire coding sequence of the human, wild-type protein was cloned into expression vector pMAL (NEB), down-stream from a maltose-binding protein tag. The linker sequence contained a TEV protease cleavage site. The protein was purified from bacterial extracts using an MBP-Trap column (GE Healthcare Life Sciences), followed by tag cleavage and removal of the tag by ion-exchange chromatography. When necessary, contaminating bacterial RNA was removed using the procedure describe by Faehnle C R. et al. (2017) Multi-domain utilization by TUT4 and TUT7 in control of let-7 biogenesis. Nat Struct Mol Biol, 24:658-665.
The Zcchc11 protein was expressed in and purified from HEK293 cells. A truncated protein comprising residues 212-1420 of the human sequence was cloned into expression vector pTT5 (Viva Biotech) down-stream from a maltose-binding protein tag. The linker sequence contained a TEV protease cleavage site, and a FLAG tag was added to the carboxyl terminus of the protein. The protein was purified from cell extracts using an MBP-Trap column (GE Healthcare Life Sciences), followed by tag cleavage and further enrichment of the full length construct using anti-FLAG affinity media (Sigma Aldrich).
“+” represents an IC50 value that is greater than 50 μM; “++” represents an IC50 value that is greater than 10 μM and equal to or less than 50 μM; “+++” represents an IC50 value that is greater than 1 μM and equal to or less than 10 μM; and “++++” represents an IC50 value that is equal to or less than 1 μM.

| IC50 | Compound |
| --- | --- |
| < 1 µM | CN(C)C1CN(c2ccc(-n3cc(C(=O)O)c(=O)c4cc(Cl)c(N5CCC[C@@H]5COc5nccc6[nH]ccc56)cc43)cn2)C1 |
| < 1 µM | Cn1cc(-n2cc(C(=O)O)c(=O)c3cc(C#N)c(N4CCC[C@@H]4COc4ncccc4Cl)nc32)cn1 (racemic) |
| < 1 µM | CN(C)C1CN(c2ccc(-n3cc(C(=O)O)c(=O)c4cc(Cl)c(N5CCC[C@@H]5COc5nc(N)ccc5Cl)cc43)cn2)C1 (racemic) |
| < 1 µM | CN(C)c1ccc(-n2cc(C(=O)O)c(=O)c3cc(Cl)c(N4CCC[C@@H]4COc4ncccc4OCCN)cc32)cn1 [Example 53, 7-[(2R)-2-([[3-(2-Aminoethoxy)pyridin-2-yl]oxy]methyl)pyrrolidin-1-yl]-6-chloro-1-[6-(dimethylamino)pyridin-3-yl]-4-oxoquinoline-3-carboxylic acid] |
| < 1 µM | Cn1cc(-n2cc(C(=O)O)c(=O)c3cc(C#N)c(N4CCC[C@@H]4COc4ncccc4Cl)cc32)cn1 (racemic) |
